The nature of the test: Antioxidant activity assessed as bleomycin-Fe2+-induced DNA degradation by measuring absorbance at 0.1 mg/ml after 1 hr. It is filed as functional.
Take `COc1ccc2c(c1)c(CC(=O)NCCC[Se]C(F)(F)F)c(C)n2C(=O)c1ccc(Cl)cc1`: the deltaA stood at 97.6.
As for `CC(=O)Oc1ccccc1C(=O)NCCC[Se]C(F)(F)F`, the figure is 130.
As for `CC1=C(CC(=O)NCCC[Se]C(F)(F)F)c2cc(F)ccc2/C1=C\c1ccc([S+](C)[O-])cc1` (stereo not drawn), the deltaA was determined as 99.3.
As for `CCc1cccc2c3c([nH]c12)C(CC)(CC(=O)NCCC[Se]C(F)(F)F)OCC3` (stereo not drawn), the figure is 111.
Under `C[C@H](C(=O)NCCC[Se]C#N)c1cccc(C(=O)c2ccccc2)c1` stands 75.5.
For `COc1ccc2cc([C@H](C)C(=O)NCCC[Se]C(F)(F)F)ccc2c1`, the deltaA came to 90.7.
As for `COc1ccc2cc([C@H](C)C(=O)NCCC[Se]C#N)ccc2c1`, the figure is 80.6; as for `Cc1cccc(Nc2ccccc2C(=O)NCCC[Se]C#N)c1C`, 62.9; as for `CCc1cccc2c3c([nH]c12)C(CC)(CC(=O)NCCC[Se]C#N)OCC3` (stereo not drawn), 92.1.
Turning to `CC(C)Cc1ccc(C(C)C(=O)NCCC[Se]C#N)cc1` (stereo not drawn), the deltaA amounted to 88.5.
As for `CC(=O)Oc1ccccc1C(=O)NCCC[Se]C#N`, the figure is 95.6.
Turning to `CC1=C(CC(=O)NCCC[Se]C#N)c2cc(F)ccc2/C1=C\c1ccc([S+](C)[O-])cc1` (stereo not drawn), the deltaA is 76.5.
As for `CC(C)Cc1ccc(C(C)C(=O)NCCC[Se]C(F)(F)F)cc1` (stereo not drawn), the figure is 92.7.
Under `CC(C(=O)NCCC[Se]C#N)c1ccc(-c2ccccc2)c(F)c1` (stereo not drawn) stands 80.4; under `C[C@H](C(=O)NCCC[Se]C(F)(F)F)c1cccc(C(=O)c2ccccc2)c1`, 82.3; under `COc1ccc2c(c1)c(CC(=O)NCCC[Se]C#N)c(C)n2C(=O)c1ccc(Cl)cc1`, 106.
As for `Cc1cccc(Nc2ccccc2C(=O)NCCC[Se]C(F)(F)F)c1C`, the deltaA was 68.3.
Regarding `CC(C(=O)NCCC[Se]C(F)(F)F)c1ccc(-c2ccccc2)c(F)c1` (stereo not drawn), the deltaA amounted to 104.
